Only a part is listed here, and it is no random draw. The source made the active and inactive calls.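 Rule for the calls: active = mutant and wild-type yeast strains alike exhibit over 30% growth inhibition; inconclusive = a strain exceeds 50% while the second remains under 30%; inactive = the rest.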
Assay: yeast growth toxicity, wild-type and mutant, primary screen, cytotoxicity control for eIF2B function restoration project, wild-type and eIF2Bepsilon R284H mutant, A595 (AID 685);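 note: 0% = untreated cell controls and 100% = YPD media blanks without cells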
Details: S. cerevisiae wild-type growth, A595 turbidity, 16 h; stronger effect = higher value; screened at 25 µM (by protocol)
Procedure, shortened: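 Incubation: 16 h growth with compound, 30 °C; Material: S. cerevisiae wild-type or eIF2Bepsilon-R284H mutant strain; Signal: turbidity measured as absorbance at 595 nm; Medium: YPD yeast growth medium; Measure: growth inhibition (%) versus cell controls and blanks; Doses: 25 µM single dose.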

**Q.** With N#CC1(Nc2ccccc2)CCN(CCc2ccccc2)CC1 as the compound, how does the growth inhibition read?
**A.** The growth inhibition was inactive: -17.2%.

**Q.** For CCC(CO)(C(=O)OC1CN2CCC1CC2)c1ccccc1 (centres undefined), which growth inhibition is on record?
**A.** The growth inhibition was inactive: 1.21%.

**Q.** With c1ccc(CN2CCC(Nc3ccccc3)CC2)cc1 as the compound, how does the growth inhibition read?
**A.** The growth inhibition was inactive: 23%.

**Q.** With N/C(=N\O)c1c(N)no[n+]1[O-] as the compound, how does the growth inhibition read?
**A.** The growth inhibition was inactive: 20%.

From PubChem BioAssay AID685 (PCMD, 2007)
